Measured values reported in publication PMC6978697 (The Journal of Pharmacology and Experimental Therapeutics, 2020).

Chains of the proteins cited; added tags and fusions are not shown. Lines headed by an entry give the natural chain unless they say otherwise; changes in a name come on top.
UniProt P41143: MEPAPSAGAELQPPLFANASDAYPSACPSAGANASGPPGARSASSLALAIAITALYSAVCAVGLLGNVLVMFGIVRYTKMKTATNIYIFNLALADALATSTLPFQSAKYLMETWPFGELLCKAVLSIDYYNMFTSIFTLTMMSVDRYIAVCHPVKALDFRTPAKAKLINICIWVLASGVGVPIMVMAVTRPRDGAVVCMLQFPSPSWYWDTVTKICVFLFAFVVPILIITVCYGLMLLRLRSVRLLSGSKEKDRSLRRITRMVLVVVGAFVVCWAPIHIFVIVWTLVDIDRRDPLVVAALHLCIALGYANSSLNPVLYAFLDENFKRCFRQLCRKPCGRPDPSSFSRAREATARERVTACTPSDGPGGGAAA

Molecular target: HA-DOPr (HA-tagged δ opioid receptor) (Homo sapiens, UniProt P41143)
Assay: saturation radioligand binding, HEK293 membranes
Conditions: labelled compound; 0.06–30 nM; pH 7.4; room temperature

[^3H]-Diprenorphine
saturation radioligand binding, HEK293 membranes: Receptor expression levels were determined by saturation binding assays with [^3H]-diprenorphine
